These results are taken from paper PMC11508426.

The term EC50 denotes the concentration needed to bring the measured effect to its halfway point. Read a high EC50 as weaker potency.

Test in all cases: fluorescence microscopy of F-actin held on a fragment-coated flow cell surface; C0-C2 fragment (0-2000 nM loading concentration) added to the nitrocellulose-coated flow cell surface for 2 min, BSA for 5 min, washed three times with AB buffer; fluorescently labeled F-actin (10 nM) added for 5 min; total intensity of filament images, 10 fields of view, at least three flow cells; Hill equation fit

Assay [1] deals with WT C0-C1-m-C2 fragment of human cardiac myosin-binding protein C (cMyBP-C) (human) (UniProt Q14896).
Assay [2] deals with P161S C0-C1-m-C2 fragment of human cardiac myosin-binding protein C (cMyBP-C) (human) (UniProt Q14896).
Assay [3] deals with D75N C0-C1-m-C2 fragment of human cardiac myosin-binding protein C (cMyBP-C) (human) (UniProt Q14896).

As to “rabbit skeletal actin, filamentous (F-actin) (from UniProt P68135 1-377) (natural protein)”, the values for the EC50 in assay [1], in assay [2] and in assay [3] were 299 nM, 277 nM and 566 nM, respectively.
